# Yeast mating assay B: variants of the scFv Ab-14

Reference: Li et al. 2023, doi:10.1038/s41467-023-39022-2. File: FLAb, binding data.

Target peptide (SARS-CoV-2 spike, HR2 region): PDVDLGDISGINAS

Parent: Ab-14, a human scFv built as VH, the linker GGGGSGGGGSGGGGS, VL. Only the CDRs of the light chain vary.
VH: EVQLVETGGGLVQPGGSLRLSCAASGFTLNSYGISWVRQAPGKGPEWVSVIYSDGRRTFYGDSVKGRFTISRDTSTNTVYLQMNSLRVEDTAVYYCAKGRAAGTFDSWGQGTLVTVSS
VL: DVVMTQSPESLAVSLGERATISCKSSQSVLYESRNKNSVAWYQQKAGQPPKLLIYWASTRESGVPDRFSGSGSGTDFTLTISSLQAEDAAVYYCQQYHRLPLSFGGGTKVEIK

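Designed CDR sequences, proposed from the first random library and measured here. Their group label is 14L_GP_Gibbs (GP: Gaussian process model; Gibbs: Gibbs sampling; a sequence that several methods proposed may carry one label only). Affinity was read by AlphaSeq, a pooled yeast mating assay with surface-displayed partners. Pairs that bind mate more often; barcode pairs of the diploids are counted by sequencing. A regression on co-assayed BCL2-family reference pairs converts the normalised counts of each replicate to an apparent Kd. Mating was done six times.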

The parent's light chain CDRs are KSSQSVLYESRNKNSVA, WASTRES, QQYHRLPLS; each variant's own CDRs replace them letter for letter.
Numbers give log10(Kd / nM), so 0 is 1 nM and 3 is 1 µM. Smaller is tighter.
A mean of the replicates is given; it leaves out those without a signal.
The authors' rule: three or more of the six replicates give a measured affinity, fewer mean a poor binder.
As a blank, each scFv also met three strains without target: over all light chain designs, 4% of these pairings were detected, typically at 2.64 and seldom below 1.59. The control count says in how many pairings with the empty strains this scFv gave a signal, with their mean in brackets.
The range of this assay differs from that of the first round, and the authors advise against merging the two.
Of ten entries with the parent sequence, four were seen in most replicates (averages 0.34 to 2.37), three in one and three in none, so single entries are noisy.

CDR-L1,CDR-L2,CDR-L3,"replicates, log10 nM","mean, log10 nM",signal with controls
KLQQSMLYESRNKNSVA,QASQREV,QQYHRLPLS,-0.17 -0.18 -0.25 -0.26 -0.27 -0.09,-0.20,1 of 18 (3.73)
KLYGSVLYESRNKNSVA,GASQREK,QQYHRLPLS,0.28 0.21 0.18 0.34 0.02 0.40,0.24,2 of 18 (2.86)
KISQSYLGLSRNVNAVA,NGSTRES,QQYHRLPLS,-0.04 -0.20 -0.23 -0.24 -0.17 -0.15,-0.17,2 of 18 (3.37)
KLQFSWEYESRNKNSVA,SAHQREV,QQYHRLPLS,0.15 -0.07 -0.03 -0.20 -0.09 0.05,-0.03,4 of 18 (3.14)
KLSQSWLYEARNSNSVA,HASQRED,QQYHRLPLS,0.06 -0.02 0.07 -0.18 -0.07 0.11,0.00,3 of 18 (2.88)
KLVGSWLYESRNKNSVA,RASQRCS,QQYHRLPLS,1.09 1.57 1.78 1.85 1.20 1.80,1.55,0 of 18
FLEQSSLYESRNKNSVA,NASTRCS,QQYHRLPLS,0.10 0.01 -0.21 -0.30 -0.05 0.28,-0.03,1 of 18 (2.12)
KISQSVPYEDRNFNSVA,NASYRCS,QQYHRLPLS,0.94 0.49 0.47 0.49 0.43 0.62,0.57,0 of 18
KAPQSDLYESRNKNSVA,SASTRSQ,QQYHRLPLQ,0.19 -0.08 0.10 -0.08 0.06 0.53,0.12,0 of 18
KLMQEMWYESRNKNSVA,HASEREQ,QQYHRLPLQ,0.07 0.08 -0.25 -0.27 0.12 0.05,-0.03,1 of 18 (3.17)
KSSGSVQGEDRNSNSVA,NASQRES,QQYHRLPLS,0.53 0.30 0.53 0.39 0.41 0.52,0.45,0 of 18
KMQQSEGMESRNVNSVA,HASQRLE,QQYHRLPLS,-0.04 0.05 -0.31 -0.34 -0.22 -0.19,-0.18,0 of 18
KLSPSFLYESRNKMSVA,NADTRLE,QQYHRLPLS,-0.06 -0.20 -0.18 -0.35 -0.30 -0.06,-0.19,2 of 18 (3.75)
KLMNSMLYESRNVNNVA,NASYRES,QQYHRLPLS,-0.13 -0.23 -0.38 -0.37 -0.24 0.04,-0.22,1 of 18 (2.75)
KSFFSEPGESRNKNSVA,DASTRES,QQYHRLPLS,0.31 -0.04 0.31 -0.12 0.05 0.19,0.12,0 of 18
KLSQSVGMQSRNKWSVA,EASTRES,QQYHRLPLS,1.70 2.38 1.37 1.68 2.31 2.99,2.07,2 of 18 (2.24)
KLQVQKLYWSRNKNSVA,EASTRES,QQYHRLPLS,0.69 0.75 0.80 0.53 0.78 0.99,0.76,1 of 18 (3.04)
KIIQSGPYESRNKNSVA,NASTRSP,QQYHRLPLS,-0.25 -0.34 -0.31 -0.59 -0.40 0.00,-0.31,0 of 18
KLSQSVLYGQRNKNSVA,KASTRMS,QQYHRLPLY,1.61 1.33 0.43 1.13 1.30 1.28,1.18,0 of 18
KLSMSVLYEDRHSNSVA,NASKRFS,QQYHRLPLS,0.54 0.35 0.21 0.07 0.47 0.56,0.37,3 of 18 (2.95)
KSEDGVDDLERNDNSVA,WASTRES,QQYHRLPLS,1.96 1.59 1.01 2.52 1.50 2.30,1.82,1 of 18 (2.43)
KSEGQVCYGDRNKNSVA,NASLREQ,QQYHRLPLS,0.10 0.08 0.24 0.00 0.05 0.18,0.11,1 of 18 (1.45)
KVMQSMWYESRNQNSVA,HASQREQ,QQYHRLPLQ,0.30 0.59 0.50 0.20 0.76 0.45,0.47,0 of 18
KWEWSQLYESRNKNSVA,NASLRES,QQYRRLPLS,0.29 0.13 0.00 -0.05 0.06 0.19,0.10,0 of 18
KMSQSQLYEWRNKNSVA,NASYRES,QQYHRLPLS,0.42 0.31 0.55 0.73 0.44 0.49,0.49,0 of 18
KMSPSYLYEDRAFNSVA,NASTRES,QQYHRLPLS,0.51 0.33 0.49 0.24 0.35 0.58,0.42,0 of 18
KLMQSDLYESRMKNNVA,DASTRME,QQYHRLPLS,0.23 0.20 -0.31 -0.23 0.04 0.20,0.02,0 of 18
KLSQSDGYQSRNKNSVA,HASQRED,QQYHRLPLS,1.23 0.92 0.55 0.35 0.66 0.99,0.79,2 of 18 (2.59)
KLSQSVEGEERNKNSVA,HASVREV,QQYHRLPLS,-0.04 -0.23 -0.31 -0.35 -0.25 -0.03,-0.20,0 of 18
KSAYSELLESRNKNSVA,SASTREV,QQYHRLPLS,0.22 -0.10 0.64 0.42 0.15 0.73,0.34,0 of 18
KISQSELYMSRNANSVA,NASTRMS,QQYHRLPLS,0.04 -0.12 0.12 -0.14 -0.31 -0.11,-0.09,0 of 18
KLQMLELYESRWCNSVA,QASTREE,QQYHRLPLS,1.37 1.20 0.33 1.36 0.84 0.97,1.01,0 of 18
KSSQQVLYEDKQVNSVA,NASQRES,QQYHRLPLS,0.14 0.26 0.17 0.22 0.12 0.15,0.18,0 of 18
KLSNSKWYESRMKNQVA,NASTREM,QQYHRLPLS,0.52 0.42 0.32 0.28 0.33 0.24,0.35,4 of 18 (2.62)

The 3 strongest on average among those seen in every replicate, once more:

CDR-L1,CDR-L2,CDR-L3,"replicates, log10 nM","mean, log10 nM",signal with controls
KIIQSGPYESRNKNSVA,NASTRSP,QQYHRLPLS,-0.25 -0.34 -0.31 -0.59 -0.40 0.00,-0.31,0 of 18
KLMNSMLYESRNVNNVA,NASYRES,QQYHRLPLS,-0.13 -0.23 -0.38 -0.37 -0.24 0.04,-0.22,1 of 18 (2.75)
KLQQSMLYESRNKNSVA,QASQREV,QQYHRLPLS,-0.17 -0.18 -0.25 -0.26 -0.27 -0.09,-0.20,1 of 18 (3.73)